Key:
HDAC8 = HDAC8 (Homo sapiens, UniProt Q9BY41)
HDAC-4 = HDAC-4 (Homo sapiens, UniProt P56524); test: Binding to metal dependent histone deacetylase enzymes (epigenetic assay services)
HDAC-1 = HDAC-1 (Homo sapiens, UniProt Q13547)
HDAC-2 = HDAC-2 (Homo sapiens, UniProt Q92769)
HDAC-11 = target: T1, HDAC-11 (Homo sapiens, UniProt Q96DB2); test: Binding to metal dependent histone deacetylase enzymes (epigenetic assay services)
T1 sequence (Q96DB2 1-347): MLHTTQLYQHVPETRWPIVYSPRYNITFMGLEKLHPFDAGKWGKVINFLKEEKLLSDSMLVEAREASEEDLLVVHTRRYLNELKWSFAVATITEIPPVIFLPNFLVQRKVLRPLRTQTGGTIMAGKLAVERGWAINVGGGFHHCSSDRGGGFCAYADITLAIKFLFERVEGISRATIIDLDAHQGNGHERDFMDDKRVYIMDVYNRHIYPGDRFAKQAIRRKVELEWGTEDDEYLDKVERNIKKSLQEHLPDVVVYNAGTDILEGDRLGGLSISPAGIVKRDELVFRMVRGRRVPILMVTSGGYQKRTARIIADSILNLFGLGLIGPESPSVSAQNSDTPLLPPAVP

Protein sequences, listed by entry. Tags and fused reporters are not part of them.
UniProt Q9BY41, whole entry, species assumed: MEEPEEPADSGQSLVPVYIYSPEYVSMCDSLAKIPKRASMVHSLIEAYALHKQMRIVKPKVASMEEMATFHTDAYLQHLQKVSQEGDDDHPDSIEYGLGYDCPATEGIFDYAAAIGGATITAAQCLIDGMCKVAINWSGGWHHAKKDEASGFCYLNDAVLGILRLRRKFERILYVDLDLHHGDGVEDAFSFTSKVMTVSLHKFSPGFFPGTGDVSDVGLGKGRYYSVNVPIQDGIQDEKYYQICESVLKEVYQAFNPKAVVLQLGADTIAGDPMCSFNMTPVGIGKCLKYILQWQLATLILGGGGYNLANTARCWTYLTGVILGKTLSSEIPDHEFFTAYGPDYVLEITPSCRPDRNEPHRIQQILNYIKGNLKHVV
UniProt P56524, whole entry, species assumed: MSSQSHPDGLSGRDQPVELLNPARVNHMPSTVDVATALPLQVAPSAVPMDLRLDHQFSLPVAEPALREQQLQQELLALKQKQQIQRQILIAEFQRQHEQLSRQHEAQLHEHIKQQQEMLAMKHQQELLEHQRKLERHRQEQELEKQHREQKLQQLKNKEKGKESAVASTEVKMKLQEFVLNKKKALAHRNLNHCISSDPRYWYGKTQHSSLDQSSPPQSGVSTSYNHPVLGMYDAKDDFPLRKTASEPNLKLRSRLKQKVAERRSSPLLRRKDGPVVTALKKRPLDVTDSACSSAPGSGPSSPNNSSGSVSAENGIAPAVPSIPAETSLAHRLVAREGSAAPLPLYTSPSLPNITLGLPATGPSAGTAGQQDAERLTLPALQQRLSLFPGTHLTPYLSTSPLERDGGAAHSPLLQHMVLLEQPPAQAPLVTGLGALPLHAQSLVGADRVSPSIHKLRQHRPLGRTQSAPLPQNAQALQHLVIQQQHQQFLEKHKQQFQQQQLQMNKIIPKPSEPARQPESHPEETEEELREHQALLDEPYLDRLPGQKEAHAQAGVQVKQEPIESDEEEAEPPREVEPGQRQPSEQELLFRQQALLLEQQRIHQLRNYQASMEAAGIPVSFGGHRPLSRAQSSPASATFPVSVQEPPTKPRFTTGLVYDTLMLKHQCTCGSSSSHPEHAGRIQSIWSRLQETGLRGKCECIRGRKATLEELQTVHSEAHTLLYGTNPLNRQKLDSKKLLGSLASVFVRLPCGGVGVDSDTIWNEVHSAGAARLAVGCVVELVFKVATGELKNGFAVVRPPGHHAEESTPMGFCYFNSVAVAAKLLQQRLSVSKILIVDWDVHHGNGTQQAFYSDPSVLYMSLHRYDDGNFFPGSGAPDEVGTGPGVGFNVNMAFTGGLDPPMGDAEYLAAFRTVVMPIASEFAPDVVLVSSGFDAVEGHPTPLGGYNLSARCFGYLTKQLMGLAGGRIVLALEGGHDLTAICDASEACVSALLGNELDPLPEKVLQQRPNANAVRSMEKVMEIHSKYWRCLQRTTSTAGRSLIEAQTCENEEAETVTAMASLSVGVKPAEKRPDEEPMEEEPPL
UniProt Q13547, whole entry, species assumed: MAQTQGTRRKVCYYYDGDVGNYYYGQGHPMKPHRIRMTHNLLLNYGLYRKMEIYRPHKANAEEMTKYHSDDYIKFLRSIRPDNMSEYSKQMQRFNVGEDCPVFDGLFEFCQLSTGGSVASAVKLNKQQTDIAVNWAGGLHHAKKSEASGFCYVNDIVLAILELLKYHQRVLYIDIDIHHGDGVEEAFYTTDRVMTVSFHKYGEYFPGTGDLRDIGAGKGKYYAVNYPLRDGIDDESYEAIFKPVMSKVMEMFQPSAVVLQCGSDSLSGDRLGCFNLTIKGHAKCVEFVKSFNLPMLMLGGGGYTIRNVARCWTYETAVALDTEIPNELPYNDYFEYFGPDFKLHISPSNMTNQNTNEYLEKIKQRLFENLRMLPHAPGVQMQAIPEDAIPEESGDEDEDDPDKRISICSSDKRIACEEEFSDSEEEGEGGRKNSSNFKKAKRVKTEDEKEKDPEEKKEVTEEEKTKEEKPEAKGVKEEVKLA
UniProt Q92769, whole entry, species assumed: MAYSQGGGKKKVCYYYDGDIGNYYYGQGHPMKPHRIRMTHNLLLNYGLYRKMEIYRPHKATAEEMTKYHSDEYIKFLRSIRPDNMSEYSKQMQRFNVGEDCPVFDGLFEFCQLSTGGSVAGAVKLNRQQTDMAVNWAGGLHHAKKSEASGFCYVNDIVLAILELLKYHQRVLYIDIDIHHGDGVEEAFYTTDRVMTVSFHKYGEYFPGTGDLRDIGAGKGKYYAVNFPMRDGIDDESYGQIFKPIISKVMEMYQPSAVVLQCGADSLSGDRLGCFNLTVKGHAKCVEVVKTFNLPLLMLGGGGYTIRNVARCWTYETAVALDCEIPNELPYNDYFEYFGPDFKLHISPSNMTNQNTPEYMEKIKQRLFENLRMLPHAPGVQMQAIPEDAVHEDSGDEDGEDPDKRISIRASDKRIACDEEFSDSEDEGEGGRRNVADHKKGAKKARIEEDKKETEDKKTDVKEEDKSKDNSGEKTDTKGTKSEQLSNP

HDAC-10 = target: T2, HDAC-10 (Homo sapiens, UniProt Q969S8); test: as above
T2 sequence (Q969S8 1-669): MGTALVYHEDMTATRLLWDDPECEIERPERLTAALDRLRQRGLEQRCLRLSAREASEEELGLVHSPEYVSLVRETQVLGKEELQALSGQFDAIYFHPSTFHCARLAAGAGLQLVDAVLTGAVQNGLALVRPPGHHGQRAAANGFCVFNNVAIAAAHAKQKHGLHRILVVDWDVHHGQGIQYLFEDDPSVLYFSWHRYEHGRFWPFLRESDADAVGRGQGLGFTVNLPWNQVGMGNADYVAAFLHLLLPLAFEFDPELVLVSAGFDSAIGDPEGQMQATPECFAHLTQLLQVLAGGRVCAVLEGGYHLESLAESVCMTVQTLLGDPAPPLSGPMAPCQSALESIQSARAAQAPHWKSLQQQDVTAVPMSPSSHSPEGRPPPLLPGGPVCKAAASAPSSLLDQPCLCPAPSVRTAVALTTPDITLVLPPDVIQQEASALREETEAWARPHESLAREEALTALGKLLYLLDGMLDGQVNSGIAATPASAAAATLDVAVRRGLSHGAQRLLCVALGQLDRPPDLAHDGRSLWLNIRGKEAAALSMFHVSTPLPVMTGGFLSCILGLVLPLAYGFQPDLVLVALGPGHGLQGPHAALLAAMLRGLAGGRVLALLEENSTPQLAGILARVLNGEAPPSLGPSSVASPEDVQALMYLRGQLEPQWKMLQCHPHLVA

`CC(/C=C/C(=O)NO)=C\[C@@H](C)C(=O)c1ccc(N(C)C)cc1` [Trichostatin A] was tested, and the HILLSLOPE (HDAC8) was −0.64, the HILLSLOPE (HDAC-4) was −0.24 and the HILLSLOPE (HDAC-1) was −0.79. For the same molecule, the HILLSLOPE (HDAC-2) was −0.93, the HILLSLOPE (HDAC-11) was −0.59 and the HILLSLOPE (HDAC-10) was −0.84.
